Target: delta opioid receptor of NG 108-15 cells (Mus musculus, UniProt P32300)
Conditions: NG 108-15 cells (native delta opioid receptor)

Sequences of proteins named here, by UniProt entry; tags and fusion partners are left off.
UniProt P32300, whole entry, looked up: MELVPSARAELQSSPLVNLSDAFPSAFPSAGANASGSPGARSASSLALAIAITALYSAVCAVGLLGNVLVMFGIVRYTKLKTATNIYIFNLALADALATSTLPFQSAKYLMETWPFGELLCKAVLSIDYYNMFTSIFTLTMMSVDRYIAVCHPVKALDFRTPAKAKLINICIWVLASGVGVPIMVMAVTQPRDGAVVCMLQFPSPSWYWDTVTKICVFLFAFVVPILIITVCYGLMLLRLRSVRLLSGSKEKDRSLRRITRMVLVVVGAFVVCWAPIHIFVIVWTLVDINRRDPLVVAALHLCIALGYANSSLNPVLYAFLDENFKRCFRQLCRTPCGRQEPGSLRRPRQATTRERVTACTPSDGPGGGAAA

With `CN(C(=O)Cc1ccc(Cl)c(Cl)c1)[C@@H]1CCCC[C@H]1N1CCCC1` (racemic) the “PKi NG 108-15” value was 4.24.
